Values of other authors as cited in patent US11261215B2, “Somatostatin prodrugs” (YISSUM RESEARCH DEVELOPMENT COMPANY OF THE HEBREW …, priority 2017, dated 2022).

Test system: Caco2
Conditions: Caco2 studies; cited from earlier work

For “DPhe-(Cys-Phe-DTrp-Lys-Thr-Cys)-Thr(ol) [Octreotide]”, the mechanism of absorption is given as “via the paracellular pathway”.
